Measured values as given in patent US20230293565A1, “USE OF WNT/BETA-CATENIN PATHWAY INHIBITORS TO BLOCK REPLICATION OF SARS-COV-2 AND OTHER PATHOGENIC VIRUSES” (THE GOVERNORS OF THE UNIVERSITY OF ALBERTA, priority 2020, published 2023).

Assays:
type I (IFNβ) interferon = assay type: cell-based, human; conditions: A549 treated 24 h, Sendai virus 8 and 16 hours
[1] = system: SARS-CoV-2 (CANADA/VIDO01/2020 strain); assay type: cell-based

Cc1cc(-c2ncc(CC(=O)Nc3ccc(-c4cnccn4)cn3)cc2C)ccn1 [LGK-974]
production of IFN (type I, IFNβ transcripts) in response to viral infection (type I (IFNβ) interferon): significantly increased

Cc1cc(/C=C/c2ccc3cc(N(C)C)ccc3[n+]2C)c(C)n1-c1ccccc1 [Pyrvinium]
production of IFN (type I, IFNβ transcripts) in response to viral infection (type I (IFNβ) interferon): significantly increased

Cn1c(=O)c2c(ncn2CC(=O)Nc2ccc(-c3ccccc3)nn2)n(C)c1=O [ETC-1922159]
production of IFN (type I, IFNβ transcripts) in response to viral infection (type I (IFNβ) interferon): significantly increased

O=C([O-])CCN1C(=O)/C(=C/c2ccc(-c3ccc([N+](=O)[O-])cc3)o2)SC1=S.[K+] [KYA1797K]
SARS-CoV-2 replication / infectious virus in media of NHBE cells [1]: no infectious virus was detected
production of IFN (type I, IFNβ transcripts) in response to viral infection (type I (IFNβ) interferon): significantly increased
